Source: patent US9458414B2, “Cleaning, surfactant, and personal care compositions” (SEGETIS, INC., priority 2012, dated 2016)

Experiment: Hair dye active solubility testing

## Nc1ccc(N)cc1 [p-phenylene diamine]
Table 13, 1% active in ketal alcohol (1a)
  Observation: orange/80 °C
Table 13, 5% active in ketal alcohol (1a)
  Observation: Dark brown
Table 13, 10% active in ketal alcohol (1a)
  Observation: Undissolved
Table 14, 5% active in EtLGK
  Observation: Dark brown
Table 15, 1% active
  Observation: Precipitation
